Chains of the proteins cited; added tags and fusions are not shown.
UniProt Q99759, whole entry: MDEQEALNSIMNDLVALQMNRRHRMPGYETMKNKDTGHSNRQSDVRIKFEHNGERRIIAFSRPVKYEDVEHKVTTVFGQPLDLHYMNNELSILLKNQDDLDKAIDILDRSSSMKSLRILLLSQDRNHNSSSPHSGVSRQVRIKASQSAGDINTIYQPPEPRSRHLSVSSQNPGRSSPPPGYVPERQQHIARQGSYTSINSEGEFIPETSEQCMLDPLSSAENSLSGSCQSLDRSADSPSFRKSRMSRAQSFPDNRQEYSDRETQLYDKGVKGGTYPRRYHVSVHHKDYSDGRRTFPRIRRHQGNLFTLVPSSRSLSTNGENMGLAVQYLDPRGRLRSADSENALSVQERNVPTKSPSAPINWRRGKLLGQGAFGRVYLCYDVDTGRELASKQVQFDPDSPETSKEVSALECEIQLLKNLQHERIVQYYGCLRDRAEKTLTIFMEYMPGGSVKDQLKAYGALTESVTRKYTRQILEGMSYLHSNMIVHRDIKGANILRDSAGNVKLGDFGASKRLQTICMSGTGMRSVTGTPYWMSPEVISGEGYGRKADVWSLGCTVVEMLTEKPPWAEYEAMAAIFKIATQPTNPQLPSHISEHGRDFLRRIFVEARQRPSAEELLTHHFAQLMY

The entries are a selection whose mix differs from that of the whole data set. Some tests of the compounds listed are not included; inactive here does not mean inactive elsewhere. Activity calls are given as the source filed them.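 How the source made its calls: active means binding response more than 3 SD above or below the average of its plate-row segment, actives on both sides; inconclusive means wells at one plate position flagged as instrument error; inactive means the rest.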
What follows are compounds tested against Mitogen-activated protein kinase kinase kinase 3 (Homo sapiens) (UniProt Q99759) (assay: modulators of MEKK3-MEK5 PB1 binding, primary screen, biochemical, wildtype MEKK3, multiplex bead flow cytometry, Alexa488-MEK5 (AID 1529;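 further: Alexa488 bead fluorescence after subtracting the streptavidin-only scavenger bead signal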)). Details: bead-based flow cytometry, Alexa488-MEK5 binding to MEKK3; at 10 µM; actives lie on both sides; 0 = blocked by unlabeled MEK5, 100 = vehicle.
With `O=C(NCC1(N2CCCCC2)CCCCC1)c1cc([N+](=O)[O-])ccc1Cl` the binding response (% of control) was inactive: 73%.
In the case of `CN1[C@@H]2CC[C@H]1CC(OC(=O)C(O)(c1ccccc1)c1ccccc1)C2` (some centres undefined), the binding response (% of control) is reported as inactive: 105%.
In the case of `COc1cc(SC)ccc1C(=O)NCC1(N(C)C)CCCCC1`, the binding response (% of control) is reported as inactive: 104%.
`CCN(CC)CC(C)C(C)OC(=O)C(O)(c1ccccc1)c1ccccc1` (centres undefined) was tested, and the binding response (% of control) was inactive: 102%.
In the case of `CC(C)N1C(=O)CC2(CCN(CCOC(=O)C(O)(c3ccccc3)c3ccccc3)CC2)C1=O`, the binding response (% of control) is reported as inactive: 101%.
For `Cc1ccc(C(=O)NCC2(N3CCCCC3)CCCCC2)cc1`, the binding response (% of control) was inactive: 103%.
For `CN(C)C1CCCC1OC(=O)C(O)(c1ccccc1)c1ccccc1` (centres undefined), the binding response (% of control) was inactive: 104%.
With `CN(C)c1ccc(C(=O)NCC2(N(C)C)CCCCC2)cc1` the binding response (% of control) was inactive: 103%.
In the case of `Cc1ccccc1C(=O)NCC1(N2CCCCC2)CCCCC1`, the binding response (% of control) is reported as inactive: 104%.
In the case of `O=C(NCC1(N2CCCCC2)CCCCC1)c1cc(F)c(F)cc1Cl`, the binding response (% of control) is reported as inactive: 98%.
With `C=CCN1CCN(CCOC(=O)C(O)(c2ccccc2)c2ccccc2)CC1` the binding response (% of control) was inactive: 107%.
In the case of `COc1ccc(C(=O)NCC2(N(C)C)CCCCC2)cc1`, the binding response (% of control) is reported as inactive: 101%.
`O=C(NCC1(N2CCCCC2)CCCCC1)c1cccc(Br)c1` was tested, and the binding response (% of control) was inactive: 98%.
For `Cc1cc(C(=O)NCC2(N3CCCCC3)CCCCC2)ccc1[N+](=O)[O-]`, the binding response (% of control) was inactive: 103%.
With `CCN1CCCC(OC(=O)C2(O)c3ccccc3C=Cc3ccccc32)C1` (centres undefined) the binding response (% of control) was inactive: 99%.
For `CN(C)C1(CNC(=O)c2ccc(Br)cc2)CCCCC1`, the binding response (% of control) was inactive: 101%.
For `COc1cc(C(=O)NCC2(N(C)C)CCCCC2)c([N+](=O)[O-])cc1OC`, the binding response (% of control) was inactive: 94%.
In the case of `COc1ccc(Cl)cc1C(=O)NCC1(N(C)C)CCCCC1`, the binding response (% of control) is reported as inactive: 108%.
In the case of `COc1cccc(C(=O)NCC2(N3CCCCC3)CCCCC2)c1`, the binding response (% of control) is reported as inactive: 102%.
`O=C(NCC1(N2CCCCC2)CCCCC1)c1cccc(Cl)c1` was tested, and the binding response (% of control) was inactive: 99%.
In the case of `O=C(OC1CN2CCC1CC2)C(CO)(c1ccccc1)c1ccccc1` (centres undefined), the binding response (% of control) is reported as inactive: 97%.
For `COc1ccc(Br)c(C(=O)NCC2(N3CCCCC3)CCCCC2)c1`, the binding response (% of control) was inactive: 97%.
In the case of `CC(C)Oc1ccc(C(=O)NCC2(N(C)C)CCCCC2)cc1`, the binding response (% of control) is reported as inactive: 102%.
For `CN(C)c1cccc(C(=O)NCC2(N(C)C)CCCCC2)c1`, the binding response (% of control) was inactive: 104%.

From PubChem BioAssay AID1529 (NMMLSC, 2009)
